The values that follow are results of earlier work, collected in patent US12685983B2, “Benefit agent delivery system” (ITC Limited, priority 2020, dated 2026).

The conditions of the data set: cited from earlier work.

Turning to `CCN(CC)CC` [Triethyl amine], the LogP value was 1.64.
